Literature values in paper PMC7982615, “Phase 1 study of telisotuzumab vedotin in Japanese patients with advanced solid tumors” (Cancer Medicine, 2021).

Tested on: MET exon 14‐mutated NSCLC
Design: method as in ref 25 = [25]; 25 Paik PK , Veillon R , Cortot AB , et al. Phase II study of tepotinib in NSCLC patients with MET ex14 mutations . J Clin Oncol . 2019; 37 ( suppl 15 ):abstract 9005.
Conditions: evaluable patients; cited from earlier work

CN1CCC(COc2cnc(-c3cccc(Cn4nc(-c5cccc(C#N)c5)ccc4=O)c3)nc2)CC1 [tepotinib]
ORR by independent review committee: 51.4%
